Laboratory results from ChEMBL document CHEMBL1129571 (J Med Chem, 1996).

Protein sequences, listed by entry. Tags and fused reporters are not part of them. Lines headed by an entry give the natural chain unless they say otherwise; changes in a name come on top.
UniProt P51635: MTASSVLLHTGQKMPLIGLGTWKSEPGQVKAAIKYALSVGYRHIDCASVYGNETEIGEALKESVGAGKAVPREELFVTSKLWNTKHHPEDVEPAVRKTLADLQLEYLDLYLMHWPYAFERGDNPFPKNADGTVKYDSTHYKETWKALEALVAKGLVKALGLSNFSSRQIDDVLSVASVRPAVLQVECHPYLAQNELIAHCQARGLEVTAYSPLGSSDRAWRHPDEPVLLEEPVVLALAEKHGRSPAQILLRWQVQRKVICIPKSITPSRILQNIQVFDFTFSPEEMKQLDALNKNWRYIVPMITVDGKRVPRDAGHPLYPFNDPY

Columns and labels:
[1] = target: Aldo-keto reductase family 1 member B1 (Rattus norvegicus, UniProt P07943); experiment: In vitro inhibitory activity against partially purified rat lens Aldose reductase at a dose of 5e-7M
[2] = target: Aldo-keto reductase family 1 member A1 (Rattus norvegicus, UniProt P51635); experiment: In vitro inhibitory activity against rat kidney Aldehyde reductase

- IC50 [1]: 0.11 µM
- IC50 [2]: 32 µM
Structure (SMILES): CCOC(=O)C1=C(O)C(=O)N(Cc2ccccc2)C1
